Reference: PubChem BioAssay (Tox21)
Where “and” joins values, the source holds several entries; their conditions need not be identical. Equal entries are not always repeated. The entries are a selection whose mix differs from that of the whole data set. Results filed as inconclusive are left out. Calls of active or inactive are those of the source. Calls come from the whole dose curve; as a rule, active = well fitted cell-killing curve with a large enough effect in the repeat runs (not every such curve was filed as active); inconclusive = weak or mixed curves, or effect the other way; inactive = no such curve, though single readings can be large or run the other way.

assay: qHTS assay to identify small molecule antagonists of the farnesoid-X-receptor (FXR) signaling pathway - cell viability counter screen (AID 743221); details: FXR-bla HEK293T viability, CellTiter-Glo luminescence, 16 h; at 62.6 µM (top of the series); note: nearly all actives have a fitted effect of over 50% in size
Description: National Center for Advancing Translational Sciences [NCATS]
NIH Chemical Genomics Center [NCGC]
U.S. Environmental Protection Agency [EPA]
National Institutes of Environmental Health Sciences [NIEHS]
National Toxicology Program [NTP]
U.S. Food and Drug Administration [FDA]
The farnesoid-X-receptor (FXR), a nuclear hormone receptor, is highly expressed in liver, intestine, kidney and adrenal cortex. Natural ligands of FXR are the bile acids (Cholic acid, Chenodeoxy cholic acid etc). FXR is an important regulator of diverse metabolic pathways, including the bile acid homeostasis, lipid and glucose metabolisms. FXR regulates the expression of target genes by binding either as a monomer or as a heterodimer with the retinoid X receptor (RXR). Numerous studies have reported that FXR exerts protective function during cholestasis, diabetes, liver regeneration, and cancer. To identify compounds that inhibit FXR signaling, GeneBLAzer FXR-UAS-bla HEK 293T cell line (Invitrogen, Carlsbad, CA) containing a beta-lactamase reporter gene under the control of a UAS response element was used to screen the Tox21 10K compound library. The cytotoxicity of the Tox21 compound library against the FXR-bla cell line was tested in parallel by measuring the cell viability using CellTiter-Glo assay in the same wells.
Tox21 Assay Protocol Summary:
FXR-bla cells were dispensed at 5000 cells/5uL/well in 1536-well black wall/clear bottom plates using a Multidrop Combi (Thermo Fisher Scientific, Waltham, MA) dispenser. After the assay plates were incubated at 37 C and 5% CO2 for 5 h, 23 nL of compounds dissolved in DMSO, positive controls or DMSO only was transferred to the assay plate by a Pintool station (Kalypsys, San Diego, CA), followed by addition of 1 uL Chenodeoxycholic acid (50 uM, final concentration in the wells). The assay plates were incubated at 37C for 16 h. After 1 uL of LiveBLAzerTM B/G FRET substrate was added using a Bioraptr Flying Reagent Dispenser (FRD) workstation (Beckman Coulter, Indianapolis, IN), the plates were incubated at room temperature for 2 h, and fluorescence intensity was measured by an Envision plate reader (PerkinElmer, Shelton, CT). For cell viability readout that measures cytotoxicity, 4uL/well of CellTiter-Glo reagent was added into the assay plates using a Bioraptr FRD. After 30 min incubation at room temperature, the luminescence intensity in the plates was measured using a ViewLux plate reader (PerkinElmer).
% is set by controls: 0 for no effect and ±100 for the full control effect.

Row | Compound | activity change, negative = cytotoxicity
1 | COP(C)(=O)OC | inactive: -8.23%
2 | OCCSCCO | inactive: 4.14%
3 | C/C1=C2N=C(/C=C3N=C(/C(C)=C4\[N-][C@@](C)([C@@H]5N=C1[C@](C)(CCC(=O)NC[C@@H](C)OP(=O)([O-])O[C@H]1[C@@H](O)[C@@H](n6cnc7cc(C)c(C)cc76)O[C@@H]1CO)[C@H]5CC(N)=O)[C@@](C)(CC(N)=O)[C@@H]4CCC(N)=O)[C@@](C)(CC(N)=O)[C@@H]\3CCC(N)=O)C(C)(C)[C@@H]/2CCC(N)=O.[C-]#N.[Co+3] | inactive: 1.21%
4 | CC(C)N(CCO)C(C)C | inactive: -22.1%
5 | Cc1ccc([N+](=O)[O-])cc1[N+](=O)[O-] | inactive: 2.84% and inactive: -2.44%
6 | CCOP(=O)(CC)Oc1ccc([N+](=O)[O-])cc1 (stereo unspecified) | inactive: -0.754%
7 | Cc1c([N+](=O)[O-])cccc1[N+](=O)[O-] | inactive: 5.02% and inactive: 0.421%
8 | CP(=O)(O)OCCC[Si](O)(O)O | inactive: 13.8%
9 | CC(C)OP(C)(=O)OC(C)C | inactive: 11.4% and inactive: 14.4%
10 | O=[N+]([O-])[O-].[NH4+] | inactive: 3.1% and inactive: 3.19%
11 | O=[N+]([O-])OCC(CO[N+](=O)[O-])(CO[N+](=O)[O-])CO[N+](=O)[O-] | inactive: -0.157%
12 | [NH4+].[O-][Cl+3]([O-])([O-])[O-] | inactive: -0.776%
13 | Cc1ccc([N+](=O)[O-])c([N+](=O)[O-])c1 | inactive: -24.3%
14 | CCOP(=O)(CC)OCC | inactive: -0.175%
15 | COc1ccc([N+](=O)[O-])cc1[N+](=O)[O-] | inactive: -15.8%

same assay, conditions: FXR-bla HEK293T viability, CellTiter-Glo luminescence, 16 h; at 81.1 µM (top of the series)

Row | Compound | activity change, negative = cytotoxicity
16 | COP(C)(=O)OC | inactive: -1.25%
17 | OCCSCCO | inactive: 4.81%
18 | N=C(N)N[N+](=O)[O-] | inactive: 9.62%
19 | [NH4+].[O-][Cl+3]([O-])([O-])[O-] | inactive: -3.13%
20 | Nc1cc([N+](=O)[O-])cc([N+](=O)[O-])c1O | inactive: -13.3%
21 | Cc1ccc([N+](=O)[O-])c([N+](=O)[O-])c1 | inactive: 2.27%
